Apparent affinities of Ab-14 variants for a coronavirus HR2 peptide

Target peptide (SARS-CoV-2 spike, HR2 region): PDVDLGDISGINAS

Each scFv is VH, the linker GGGGSGGGGSGGGGS, VL, as in the parent Ab-14, and differs from it in the CDRs of the heavy chain only.
VH: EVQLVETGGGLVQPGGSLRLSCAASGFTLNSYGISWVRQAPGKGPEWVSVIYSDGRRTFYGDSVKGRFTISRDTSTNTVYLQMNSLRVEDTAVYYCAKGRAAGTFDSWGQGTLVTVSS
VL: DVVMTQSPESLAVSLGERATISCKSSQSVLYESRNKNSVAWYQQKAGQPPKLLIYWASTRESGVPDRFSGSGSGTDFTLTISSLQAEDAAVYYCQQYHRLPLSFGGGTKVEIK

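Designed CDR sequences, proposed from the first random library and measured here. Group labels follow the data file (Ctrl: baseline library sampled from a position-specific scoring matrix, with some repeated check sequences; Rand: our label for a block that the file lists under HC and that is probably the random mutants of the ten best first-round binders; GP: Gaussian process model; GPLM: also part of the Gaussian process libraries; HC: hill climbing; Gen: genetic algorithm; Gibbs: Gibbs sampling; a sequence that several methods proposed may carry one label only). The scFvs were displayed on barcoded MATa yeast, the peptide on MATalpha yeast. Binding brings cells together so that they mate, and sequencing counts the barcode pairs among the diploids. Read counts were normalised to the haploid input and turned into Kd by a linear fit to BCL2-family pairs of known affinity, for each replicate. Mating was done six times.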

Substitutions are numbered in sequence along the VH above, starting at 1 (not Kabat). This list holds designs with at most six substitutions. The Kd shown is the geometric mean over detected replicates; a lower Kd is a better binder. A pair that was not seen in any replicate is written "nd"; this usually means weak binding, but a binder can also be missed. Of ten entries with the parent sequence, four were seen in most replicates (averages 2.2 nM to 240 nM), three in one and three in none, so single entries are noisy.

With T28E G61K R100K A101V [GP_Gibbs] the result was 3.6 nM (6 of 6 replicates). The variant T28D G61A S63Q [GP_Gen] showed 3.4 nM (6 of 6 replicates). For N30D S53A S107Q [GP_HC], the assay gave 900 pM (6 of 6 replicates). With T28S S31N G61T [GPLM_Gen] the result was 3.1 nM (6 of 6 replicates). The variant G61Q R100Q A101L [GPLM_HC] gave 110 nM (6 of 6 replicates). With T28N G61V A101H [GP_Gen] the result was nd (0 of 6 replicates).

The variant T28D G61T R100E [Ctrl+GPLM_Gibbs] showed 980 pM (12 of 12 replicates). The variant S31D A101C S107I [GP_HC] gave nd (0 of 6 replicates). The variant R100D A102M [Ctrl] showed 79 nM (3 of 6 replicates). With T28D R100Q A101T S107G [GP_Gen] the result was 2.2 nM (6 of 6 replicates). The variant N30D R100W [Ctrl] showed 140 nM (4 of 6 replicates). For T28E S63N A101R [Ctrl], the assay gave nd (0 of 6 replicates).

For G26K G61S R100Q A101T [GP_Gibbs], the assay gave 37 nM (5 of 6 replicates). The variant T28P D106R [Ctrl] showed 390 nM (2 of 6 replicates). For G61S D106S [Ctrl], the assay gave 56 nM (4 of 6 replicates). The variant S35K A102S F105M D106N [Ctrl] showed 78 nM (1 of 6 replicates). For G26K T28E S31E A101T [GP_Gen], the assay gave 49 nM (5 of 6 replicates). The variant T28S A101L [GPLM_Gen] gave 21 nM (6 of 6 replicates).

With T28S G61S R100S A101T [GPLM_Gen] the result was 610 pM (6 of 6 replicates). With T28G G61D R100L A101L [GP_HC] the result was 17 nM (6 of 6 replicates). With G26K T28D G61Q A101N [GP_Gen] the result was 13 nM (6 of 6 replicates). The variant T28S G61Q A101T S107R [GP_Gibbs] showed 6.8 nM (6 of 6 replicates). The variant S53A R100K A101T [GPLM_Gen] gave 870 pM (6 of 6 replicates). The variant T28N S31K [Ctrl] gave 120 nM (2 of 6 replicates).

For T28E R100K A101T S107A [GPLM_Gibbs], the assay gave 1.7 nM (6 of 6 replicates). With S31D F59Q G61I A101T [GPLM_HC] the result was 1.4 nM (4 of 6 replicates). The variant G61K R100Q A101L [GPLM_HC] gave 24 nM (6 of 6 replicates). With G61T R100E A101Q [GP_HC] the result was nd (0 of 6 replicates). With F59W G61H [Ctrl] the result was 12 nM (5 of 6 replicates). The variant F59A D62P A102S G103V [Ctrl] gave nd (0 of 6 replicates).

The variant G61E A101E [Ctrl] showed 6.8 nM (5 of 6 replicates). The variant T28D S63Q A101Q [GP_Gen] showed 22 nM (6 of 6 replicates). The variant N30D G103V F105A D106L S107R [Rand] showed nd (0 of 6 replicates). The variant A101M D106K S107I [Ctrl] showed 4.2 nM (1 of 6 replicates). For T28E S31K R100Q S107T [GP_Gibbs], the assay gave 18 nM (6 of 6 replicates). For T28E S31D S53A R100T [GP_HC], the assay gave 470 pM (6 of 6 replicates).

The variant T28R G103L [Ctrl] showed nd (0 of 6 replicates). The variant T28Q S31E S63A A101T [GP_Gen] gave 1.8 nM (6 of 6 replicates). The variant S63D R100E S107T [GP_Gen] gave 40 nM (3 of 6 replicates). The variant N30D S31D F105A D106L [Rand] gave 37 nM (1 of 6 replicates). The variant T28Q S63N R100K A101T [GP_Gen] gave 10 nM (5 of 6 replicates). For T28W F59A G61H [GP_HC], the assay gave 3.2 nM (6 of 6 replicates).

The variant T28E R100K S107T [GP_Gen] showed 34 nM (6 of 6 replicates). The variant T28S R100M A101E S107Q [GP_Gibbs] showed 2.2 nM (6 of 6 replicates). For T28G S31E S53A [GP_HC], the assay gave 440 pM (6 of 6 replicates). The variant T28Q G61S R100Q A102G [GPLM_HC] showed 200 nM (6 of 6 replicates). The variant N30K G61A R100K A101L [GP_HC] showed 42 nM (4 of 6 replicates). For S31E S53F F59S S63D A102T D106C [Ctrl], the assay gave nd (0 of 6 replicates).

The variant T28M S63D G99E A102K [Ctrl] showed nd (0 of 6 replicates). The variant T58V S63A [Ctrl] showed 53 nM (5 of 6 replicates). The variant T28E S31E R100N S107K [GP_Gen] showed 2.7 nM (6 of 6 replicates). The variant T28E R100H S107N [GP_Gibbs] gave 47 nM (2 of 6 replicates).

The last 8 entries again:

{"changes": "T28G S31E S53A", "group": "GP_HC", "Kd": "440 pM", "replicates with signal": "6 of 6"}
{"changes": "T28Q G61S R100Q A102G", "group": "GPLM_HC", "Kd": "200 nM", "replicates with signal": "6 of 6"}
{"changes": "N30K G61A R100K A101L", "group": "GP_HC", "Kd": "42 nM", "replicates with signal": "4 of 6"}
{"changes": "S31E S53F F59S S63D A102T D106C", "group": "Ctrl", "Kd": "nd", "replicates with signal": "0 of 6"}
{"changes": "T28M S63D G99E A102K", "group": "Ctrl", "Kd": "nd", "replicates with signal": "0 of 6"}
{"changes": "T58V S63A", "group": "Ctrl", "Kd": "53 nM", "replicates with signal": "5 of 6"}
{"changes": "T28E S31E R100N S107K", "group": "GP_Gen", "Kd": "2.7 nM", "replicates with signal": "6 of 6"}
{"changes": "T28E R100H S107N", "group": "GP_Gibbs", "Kd": "47 nM", "replicates with signal": "2 of 6"}

The authors averaged sequences with at least three values out of six and counted those with two or fewer as poor binders. Nonspecific signal, from three strains lacking the peptide, appeared in 1% of pairings of all heavy chain designs, centred on 120 nM (5% of these signals below 7.0 nM); values are not corrected for it. A sequence that the file lists under several names has all its replicates pooled. Values of this round are not directly comparable with the first-round values of the same sequences.

Data: MIT Lincoln Laboratory AlphaSeq set, Li et al. 2023, doi:10.1038/s41467-023-39022-2, as distributed in FLAb.